Biological target: 6HIS-HiBiT-GEMIN3_(aa41-268) (human) (UniProt Q9UHI6)

Protein sequences, listed by entry. Tags and fused reporters are not part of them. Residues count along the entry.
UniProt Q9UHI6, 41-268: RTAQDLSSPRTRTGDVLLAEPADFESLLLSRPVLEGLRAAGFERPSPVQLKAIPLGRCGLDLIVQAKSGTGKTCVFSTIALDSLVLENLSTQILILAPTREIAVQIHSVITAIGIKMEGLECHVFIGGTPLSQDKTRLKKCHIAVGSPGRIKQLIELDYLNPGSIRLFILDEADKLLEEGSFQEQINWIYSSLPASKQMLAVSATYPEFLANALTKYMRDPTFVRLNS
UniProt P40337, whole entry: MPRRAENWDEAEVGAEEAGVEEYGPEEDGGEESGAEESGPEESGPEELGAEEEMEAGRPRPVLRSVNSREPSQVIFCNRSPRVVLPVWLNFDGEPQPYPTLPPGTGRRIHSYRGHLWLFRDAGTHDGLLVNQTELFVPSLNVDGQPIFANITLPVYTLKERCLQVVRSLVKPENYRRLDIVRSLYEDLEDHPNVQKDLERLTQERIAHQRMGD
UniProt Q15369, whole entry: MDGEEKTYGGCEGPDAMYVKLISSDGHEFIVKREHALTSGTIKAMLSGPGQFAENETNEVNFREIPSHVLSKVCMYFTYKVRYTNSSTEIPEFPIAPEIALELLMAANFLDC

Dmax of cellular GEMIN3 degradation (HiBiT-GEMIN3 HEK293T) with dGEM3: 81%
Substance: Untagged VHL/EloB/EloC (VBC) (from UniProt P40337;Q15370;Q15369) (complex)

Source: doi:10.1101/2025.03.19.644003
